Results from patent US7745152B2, “Method for determining genotoxicity” (priority 2004, dated 2010).

Key:
C2C12 cells [1] = experiment: Genomic assay: gene expression analysis (Affymetrix Murine Genome MOE430) in C2C12 cells induced to differentiate; conditions: C2C12, 24 h drug (μg/ml: BLEO 0.5, CIS 0.6, ETOP 0.5, MMS 0.008, MNNG 4, VINC 0.6), then 6, 18 or 24 h differentiation, vs DMSO
C2C12 cells [2] = experiment: Phenotypic genotoxicity assay: C2C12 differentiation into myotubes; conditions: block of C2C12 differentiation into myotubes; 24 h exposure, read at 48 and 72 h in differentiation media

Substance: 1-methyl-3-nitro-nitroso-guanidine
- Fold change in expression: 0610013D04 Rik, RIKEN cDNA (C2C12 cells [1]): 2.50 fold
- Fold change in expression: 1600013K19 Rik, RIKEN cDNA (C2C12 cells [1]): 0.62 fold
- Fold change in expression: 2610005B21 Rik, RIKEN cDNA (C2C12 cells [1]): 0.47 fold
- Fold change in expression: 2610019I03 RIK, RIKEN cDNA (C2C12 cells [1]): 065 fold
- Fold change in expression: 2610509G12 Rik, RIKEN cDNA (C2C12 cells [1]): 0.59 fold
- Fold change in expression: 2810417H13 Rik, RIKEN cDNA (C2C12 cells [1]): 0.60 fold
- Fold change in expression: 4833427G06 Rik, RIKEN cDNA (C2C12 cells [1]): 4.00 fold
- Fold change in expression: 6530401L14 Rik, RIKEN cDNA (C2C12 cells [1]): 0.56 fold
- Fold change in expression: 9030617O03 Rik, RIKEN cDNA (C2C12 cells [1]): 2.20 fold
- Fold change in expression: Anxa8, Annexin A8 (C2C12 cells [1]): 2.80 fold
- Fold change in expression: Asflb, ASF1 anti-silencing function 1 homolog B (Saccharomyces) (C2C12 cells [1]): 0.57 fold
- Fold change in expression: Birc5, Baculoviral IAP repeat-containing 5 (C2C12 cells [1]): 0.63 fold
- Fold change in expression: Brca1, Breast cancer 1 (C2C12 cells [1]): 0.53 fold
- Fold change in expression: Calmbp1, Calmodulin binding protein 1 (C2C12 cells [1]): 0.41 fold
- Fold change in expression: Capn6, Calpain 6 (C2C12 cells [1]): 0.60 fold
- Fold change in expression: Ccna2, Cyclin A2 (C2C12 cells [1]): 0.61 fold
- Fold change in expression: Ccng1, Cyclin G1 (C2C12 cells [1]): 3.10 fold
- Fold change in expression: Cilp, Cartilage intermediate layer pro (C2C12 cells [1]): 0.49 fold
- Fold change in expression: Cks2, CDC28 protein kinase regulatory subunit 2 (C2C12 cells [1]): 0.57 fold
- Fold change in expression: D4Ertd421e, DNA segment, Chr 4, ERATO Doi 421, expressed (C2C12 cells [1]): 0.40 fold
- Fold change in expression: Dda3-pending, Differential display and activated by p53 (C2C12 cells [1]): 3.80 fold
- Fold change in expression: E2f7, E2F transcription factor 7 (C2C12 cells [1]): 0.53 fold
- Fold change in expression: E030024M05 Rik, RIKEN cDNA (C2C12 cells [1]): 2.00 fold
- Fold change in expression: E130315B21 Rik, RIKEN cDNA (C2C12 cells [1]): 0.60 fold
- Fold change in expression: Ephx1, Epoxide hydrolase 1 (microsomal xenobiotic hydrolase) (C2C12 cells [1]): 2.10 fold
- Fold change in expression: Fbxo5, f-box only protein 31 (C2C12 cells [1]): 0.51 fold
- Fold change in expression: Foxm1, Forkhead box M1 (C2C12 cells [1]): 0.58 fold
- Fold change in expression: Gmnn, Geminin (C2C12 cells [1]): 0.58 fold
- Fold change in expression: Gnpi, Glucosamine-6-phosphate deaminase (C2C12 cells [1]): 1.90 fold
- Fold change in expression: Hgf, Hepatocyte growth factor (scatter factor) (C2C12 cells [1]): 3.20 fold
- Fold change in expression: Hmgb2, High mobility group box 2 (C2C12 cells [1]): 0.45 fold
- Fold change in expression: Hmgb3, High mobility group box 3 (C2C12 cells [1]): 0.46 fold
- Fold change in expression: Hmmr, Hyaluronan mediated motility receptor (RHAMM) (C2C12 cells [1]): 0.47 fold
- Fold change in expression: Kifl1, Kinesin 11 (C2C12 cells [1]): 0.53 fold
- Fold change in expression: Lek1, Leucine, glutamic acid, lysine family 1 protein (C2C12 cells [1]): 0.36 fold
- Fold change in expression: Ly6e, Lymphocyte antigen 6 complex, locus E (C2C12 cells [1]): 2.30 fold
- Fold change in expression: M-phosph1, M-phase phosphoprotein (C2C12 cells [1]): 0.38 fold
- Fold change in expression: MGC:32192, Mus musculus cDNA clone MGC: 32192 IMAGE: 5006129 (C2C12 cells [1]): 0.58 fold
- Fold change in expression: Mad2l1, MAD2 (mitotic arrest deficient, homolog)-like 1 (yeast) (C2C12 cells [1]): 0.55 fold
- Fold change in expression: Mad3, Max dimerization protein 3 (C2C12 cells [1]): 0.56 fold
- Fold change in expression: Mcm3, Minichromosome maintenance deficient 3 (Saccharomyces) (C2C12 cells [1]): 0.57 fold
- Fold change in expression: Mcmd4, Minichromosome maintenance deficient 4 homolog (C2C12 cells [1]): 0.57 fold
- Fold change in expression: Mki67, Antigen identified by MAb Ki67 (C2C12 cells [1]): 0.34 fold
- Fold change in expression: Mmhead, Mus musculus 15 day embryo head cDNA clone (C2C12 cells [1]): 2.50 fold
- Fold change in expression: Nos3, Nitric oxide synthase 3, endothelial cell (C2C12 cells [1]): 2.10 fold
- Fold change in expression: Np95, Nuclear protein 95 (C2C12 cells [1]): 0.51 fold
- Fold change in expression: Nusap1, Nucleolar and spindle associated protein 1 (C2C12 cells [1]): 0.55 fold
- Fold change in expression: Osbp16, Oxysterol binding protein-like 6 (C2C12 cells [1]): 2.10 fold
- Fold change in expression: Pbk, PDZ binding kinase (C2C12 cells [1]): 0.60 fold
- Fold change in expression: Pcna, Proliferating cell nuclear antigen (C2C12 cells [1]): 0.64 fold
- Fold change in expression: Phex, Phosphate regulating neutral endopeptidase (X chromosome) (C2C12 cells [1]): 2.20 fold
- Fold change in expression: Plf, Proliferin (C2C12 cells [1]): 2.00 fold
- Fold change in expression: Pola1, DNA polymerase alpha 1, 180 kDa (C2C12 cells [1]): 0.36 fold
- Fold change in expression: Prc1, Protein regulator of cytokinesis 1 (C2C12 cells [1]): 0.59 fold
- Fold change in expression: Prelp, Proline arginine-rich end leucine-rich repeat (C2C12 cells [1]): 0.11 fold
- Fold change in expression: Prim1, DNA primase, p49 subunit (C2C12 cells [1]): 0.51 fold
- Fold change in expression: Rad51ap1, RAD51-associated protein 1 (C2C12 cells [1]): 0.52 fold
- Fold change in expression: Rbl1, Retinoblastoma-like 1 (p107) (C2C12 cells [1]): 0.64 fold
- Fold change in expression: Serpine1, Ser (or Cys) proteinase inhibitor, clade E, member 1 (C2C12 cells [1]): 0.62 fold
- Fold change in expression: Sesn2, Sestrin 2 (C2C12 cells [1]): 5.80 fold
- Fold change in expression: Shcbp1, Shc SH2-domain binding protein 1 (C2C12 cells [1]): 0.44 fold
- Fold change in expression: Slc35a5, Solute carrier family 35, member A5 (C2C12 cells [1]): 2.50 fold
- Fold change in expression: Smc2l1, SMC2 structural maintenance of chromosomes 2-like 1 (C2C12 cells [1]): 0.54 fold
- Fold change in expression: Stk18, Serine/threonine kinase 18 (C2C12 cells [1]): 0.53 fold
- Fold change in expression: Tacc3, Transforming, acidic coiled-coil containing protein 3 (C2C12 cells [1]): 0.59 fold
- Fold change in expression: Tagln, Transgelin (smooth muscle 22 protein) (C2C12 cells [1]): 0.55 fold
- Fold change in expression: Tk1, Thymidine kinase 1 (C2C12 cells [1]): 0.46 fold
- Fold change in expression: Top2a, Topoisomerase (DNA) II alpha (C2C12 cells [1]): 0.47 fold
- Fold change in expression: Trp53inp1, Transformation related protein, 53 inducible nuclear protein 1 (C2C12 cells [1]): 3.00 fold
- Fold change in expression: Usp30, Ubiquitin specific protease 30 (C2C12 cells [1]): 2.60 fold
- Fold change in expression: Wig1, Wild-type p53-induced gene 1 (C2C12 cells [1]): 1.90 fold
- Fold change in expression: Slc19a2, Solute carrier family 19 (thiamine transporter), member 2 (C2C12 cells [1]; first Slc19a2 entry (r16)): 3.30 fold
- Fold change in expression: Slc19a2, Solute carrier family 19 (thiamine transporter), member 2 (C2C12 cells [1]; second Slc19a2 entry (r72)): 2.20 fold
- Lowest effective dose (C2C12 cells [2]): 0.1 µg/mL
